Experimental findings from patent publication US9567317B2, “Multicomponent crystalline system comprising nilotinib and selected co-crystal formers” (BASF SE, priority 2012, dated 2017) are described below.

Data set [1] is described as follows: Aqueous solubility determination. To be noted: corrected to the effective solubility of the free drug substance, after two hours equilibration time.

As for “Nilotinib Hydrochloride-fumaric Acid Co-crystal”, where the note is “dynamic vapor sorption, at 95% relative humidity”, the highest water up-take result was “about 0.4%”. Also, the “water content change (water uptake)” value (relative humidity changed from 0 to 95% according to the measurement program (FIG. 4)) is given as “Δm = 0.4%”.
In the case of “Nilotinib Hydrochloride-maleic Acid Co-crystal”, the Aqueous Solubility – broadly, how much of the substance goes into solution per volume – at 25° C. in data set [1] worked out at 425 µg/mL.
